The source of these data is patent US7674471B2, “Topical composition, topical composition precursor, and methods for manufacturing and using” (Skinvisible Pharmaceuticals, Inc., priority 2001, dated 2010).

Data set [1] can be described thus: solubility in water or solvents. The text has this:
In addition, β-cyclodextrin is a relatively small molecule with all of its —OH groups lying on the outside of the molecule. If all of the —OH groups formed complexes with pyrrolidone groups, none would be available to promote water solubility.

The conditions of data set [2]: in vivo; cited from earlier work.

In the case of “Poly(vinylpyrrolidone/1-eicosene) [PVPE]”, the solubility in water result in data set [1] is recorded as “highly insoluble in water”. Moreover, the dermal toxicity result in data set [2] is recorded as “no demonstrable dermal toxicity”.

Take “Poly(vinylpyrrolidone/1-hexadecene) [PVPH]”: the solubility in water entry in data set [1] is on record as “insoluble in water”. In addition, the dermal toxicity entry in data set [2] is reported as “no demonstrable dermal toxicity”.
